Article PMC3998711 (Nature chemical biology, 2014)

Molecular target: first bromodomain of BRD4, BRD4(1) (Homo sapiens, UniProt O60885)
Experiment: AlphaScreen assay
Type: binding
Settings: described in words

SMILES: Cc1cnc(Nc2ccc(OCCN3CCCC3)cc2)nc1Nc1cccc(S(=O)(=O)NC(C)(C)C)c1 [TG-101348]
- AlphaScreen dose response IC50: nanomolar
